Drawing on ChEMBL document CHEMBL1127336, “P1 aspartate-based peptide alpha-((2,6-dichlorobenzoyl)oxy)methyl ketones as potent time-dependent inhibitors of interleukin-1 beta-converting enzyme” (J Med Chem, 1994), this text covers k obs / 1 for one compound.

The experiment addresses T1, Caspase-1 (Homo sapiens) (UniProt P29466).
T1 sequence (whole entry): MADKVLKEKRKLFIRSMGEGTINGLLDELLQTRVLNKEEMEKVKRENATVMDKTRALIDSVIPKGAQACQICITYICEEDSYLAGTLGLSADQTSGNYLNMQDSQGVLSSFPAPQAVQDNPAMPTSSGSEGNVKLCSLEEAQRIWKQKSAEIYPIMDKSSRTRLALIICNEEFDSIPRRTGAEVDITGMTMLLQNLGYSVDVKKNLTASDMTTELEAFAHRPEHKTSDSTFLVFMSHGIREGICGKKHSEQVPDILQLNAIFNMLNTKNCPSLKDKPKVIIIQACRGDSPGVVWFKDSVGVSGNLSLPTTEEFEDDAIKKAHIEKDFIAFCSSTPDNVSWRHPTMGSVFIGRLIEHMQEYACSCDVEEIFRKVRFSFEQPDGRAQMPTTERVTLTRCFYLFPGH
The experiment in a line: Compound was evaluated for the ability to inhibit Interleukin-1-beta-converting enzyme (ICE) purified from THP-1 cells.

On to `CC(C)[C@H](NC(=O)OCc1ccccc1)C(=O)N[C@@H](C)C(=O)N[C@@H](CC(=O)O)C(=O)COC(=O)c1c(Cl)cccc1Cl`, for which the k obs / 1 came out at 407000 M⁻¹ s⁻¹.
